According to patent US3932650A, “Trans-octahydropyridoindolobenzazepines as central nervous system depressants” (E. I. Du Pont de Nemours & Company, priority 1973, dated 1976):

Legend:
Format in all cases: in vivo
TBZ-induced ptosis [1] = assay: Tetrabenazine Antagonism (T.B.Z.A.), rat; conditions: po, TBZ 40 mg/kg s.c. one hour after compound
[2] = test system: phenyl-p-benzoquinone-induced writhing; assay: Phenylquinone Writhing (P.Q.W.); conditions: mouse, po; phenyl-p-benzoquinone 2.5 mg/kg i.p. 30 minutes after compound
catalepsy [3] = assay: Catalepsy, rat; conditions: po
locomotor activity [4] = assay: Decreased Locomotor Activity (L.M.A.), rat; conditions: po, minimal effective dose
[5] = test system: fear / feeding in approach-avoidance conflict; assay: Rat Conflict (Approach-Avoidance) Test; conditions: po, after 1 or 2 hours
catalepsy [6] = assay: Catalepsy, mouse; conditions: po
eyelid closure (ptosis) [7] = assay: Ptosis, mouse; conditions: po, passive ptosis
eyelid closure (ptosis) [8] = assay: Ptosis, rat; conditions: po, passive ptosis
taming = assay: Rhesus Monkey Taming Effects; conditions: po
[9] = test system: conditioned avoidance response; assay: Conditioned Avoidance Response (C.A.R.), mouse; conditions: po, block of C.A.R. in 50% of animals, 1, 2, and 4 hours
[10] = test system: conditioned avoidance response; assay: Conditioned Avoidance Response (C.A.R.), rat; conditions: po, block of C.A.R. in 50% of animals, 1, 2, and 4 hours
TBZ-induced ptosis [11] = assay: Tetrabenazine Antagonism (T.B.Z.A.), mouse; conditions: po, TBZ 40 mg/kg s.c. one hour after compound
locomotor activity [12] = assay: Decreased Locomotor Activity (L.M.A.), mouse; conditions: po, minimal effective dose
[13] = test system: conditioned avoidance response; assay: Dog Conditioned Avoidance Response (C.A.R.); conditions: po, 5 or more incorrect responses in 50% of animals, 1, 2, and 4 hours

CCN1CC[C@@H]2[C@@H](C1)c1cccc3c1N2c1ccccc1CC3 (relative stereo)
T.B.Z.A. ED50 (TBZ-induced ptosis [1]): > 100 mg/kg | P.Q.W. ED50 [2]: 0.40 mg/kg | Catalepsy MED (catalepsy [3]): 10 mg/kg | L.M.A. MED (locomotor activity [4]): 1 mg/kg | Conflict MED [5]: > 40 mg/kg | Catalepsy MED (catalepsy [6]): 30 mg/kg | Ptosis MED (eyelid closure (ptosis) [7]): 10 mg/kg | Ptosis MED (eyelid closure (ptosis) [8]): 10 mg/kg | Taming MED (taming): 1 mg/kg | C.A.R. ED50 [9]: ~ 10 mg/kg | C.A.R. ED50 [10]: ~ 10 mg/kg | T.B.Z.A. ED50 (TBZ-induced ptosis [11]): > 100 mg/kg | L.M.A. MED (locomotor activity [12]): 1 mg/kg | C.A.R. ED50 [13]: ~ 6 mg/kg

CN1CC[C@@H]2[C@@H](C1)c1cccc3c1N2c1ccccc1CC3 (relative stereo)
T.B.Z.A. ED50 (TBZ-induced ptosis [1]): > 100 mg/kg | P.Q.W. ED50 [2]: 1.9 mg/kg | Catalepsy MED (catalepsy [3]): 3 mg/kg | L.M.A. MED (locomotor activity [4]): 1 mg/kg | Conflict MED [5]: > 40 mg/kg | Catalepsy MED (catalepsy [6]): 10 mg/kg | Ptosis MED (eyelid closure (ptosis) [7]): 10 mg/kg | Ptosis MED (eyelid closure (ptosis) [8]): 10 mg/kg | Taming MED (taming): 1 mg/kg | C.A.R. ED50 [9]: ~ 10 mg/kg | C.A.R. ED50 [10]: ~ 10 mg/kg | T.B.Z.A. ED50 (TBZ-induced ptosis [11]): > 100 mg/kg | L.M.A. MED (locomotor activity [12]): 3 mg/kg | C.A.R. ED50 [13]: ~ 10 mg/kg

Cl.c1ccc2c(c1)CCc1cccc3c1N2[C@@H]1CCN(CC2CCCCC2)C[C@@H]31 (relative stereo)
P.Q.W. ED50 [2]: 13 mg/kg
